The source of these data is patent US6743429B2, “Use of calcitonin gene-related peptide in the prevention and alleviation of asthma and related bronchospastic pulmonary diseases” (Sherbrooke University, priority 1999, dated 2004).

The test system of one assay is allergic guinea pigs. Put plainly: Eosinophil chemotaxis in airways of allergic guinea pigs after inhaled CGRP (BAL and lung histology). To be noted: 24 hours. The assay is classed as in vivo, guinea pig. How it is done: Guinea pigs were actively sensitized to ovalbumin as described above. On the days of experimentation, they were challenged by inhalation (3 min) of aerosolized ovalbumin (1.5 mg/ml). Fifteen minutes after the ovalbumin challenge, an aerosol solution of 30 μg/ml CGRP or sterile 0.9% saline solution (control) was inhaled for 10 minutes in only one dosage regime. Ovalbumin and CGRP for inhalation were dissolved in sterile 0.9% saline solution and converted into an aerosol with a portable nebulizer driven by compressed air at 7 L/min. After 24 hrs, animals were divided equally into different groups and cellular infiltration into the airways was assessed by both cytological and histopathological examinations.
Guinea pigs were anesthetized with pentobarbitone sodium, 50 mg/kg injected intraperitoneally and exsanguinated by dorsal aorta section. Bronchoalveolar lavage (BAL) was performed with 4×5 ml volumes of phosphate buffered saline (PBS) solution at 37° C. The recovered fluid was combined and the cells were pelleted by centrifugation at 1250 rpm for 10 min at 4° C. After resuspension in 1 ml of PBS, total leucocyte counts, were done with a Newbauer hemocytometer. Differential cell counts were performed on cytospin preparations stained with 5% Giemsa. Standard morphologic criteria were used to identify the population of eosinophils.
For histopathological examination of the lungs, guinea pigs were euthanized as described above. Samples of lungs were removed and fixed in Bouin's solution. After the fixation, the specimens were embedded in paraffin wax, cut into 5 mm thick sections and stained with hematoxylineosin.

Assay [1] has as its system guinea pig isolated bronchi. Put plainly: Inhibition by CGRP of substance P-induced contraction in isolated main bronchi. It counts as cell-based. As to the method: (§1) Adult Hartley albino guinea pigs of either sex, weighing 200-250 g were actively sensitized to ovalbumin (OA), as described in (20). They were injected with 100 mg i.p. and 100 mg s.c. of OA on day 1 and a further 10 mg i.p. was administered as a booster on day 8. They were used experimentally 14 or 15 days later. Control animals received the vehicle solution only. All research protocols conform to the guiding principles for animal experimentation and were approved by the Ethical Committee on Animal Research of the Medical School of the Université de Sherbrooke.
Guinea pigs were killed by exsanguination following intraperitoneal injection of pentobarbitone sodium (50 mg/kg). The trachea and lungs were quickly removed and placed in cold Krebs solution. Both right and left main bronchi were dissected out and cut into spirals. Parenchymal strips (approximately 15 mm×3 mm×3 mm) were cut from the periphery of either right or left lower lobes of the lung as previously described (4, 20). Each preparation was mounted in a 5 ml organ bath containing Krebs solution (37° C.) bubbled with 5% CO2 in O2. Contractions were measured isometrically with a Grass FT03 force displacement transducer and recorded on a Grass polygraph (Model 7D) as tension changes (g). […]

Assay [2] relates to guinea pig isolated parenchymal strips. Put plainly: Inhibition by CGRP of substance P-induced contraction in isolated parenchymal strips. It counts as cell-based. As to the method: as §1
Guinea pigs were killed by exsanguination following intraperitoneal injection of pentobarbitone sodium (50 mg/kg). The trachea and lungs were quickly removed and placed in cold Krebs solution. Both right and left main bronchi were dissected out and cut into spirals. Parenchymal strips (approximately 15 mm×3 mm×3 mm) were cut from the periphery of either right or left lower lobes of the lung as previously described (4, 20). Each preparation was mounted in a 5 ml organ bath containing Krebs solution (37° C.) bubbled with 5% CO2 in O2. Contractions were measured isometrically with a Grass FT03 force displacement transducer and recorded on a Grass polygraph (Model 7D) as tension changes (g). All tissues were subjected to an initial loading tension of 1 g and allowed to equilibrate for 60 min (with changes of bath medium every 15 min) before experimentation began.
The inhibitory effect of CGRP on SP-induced contractions was investigated essentially as described previously (4, 20). Each tissue preparation was first primed with a concentration of carbamylcholine (10^−6M) to evaluate its responsiveness. When the basal tone was reestablished (after a few washouts), contractions to SP (5×10^−8M) were elicited at 15 min intervals with a drug contact time just sufficient to record the peak response. CGRP (10^−9M to 10^−6M) was then added to the organ bath and 5 minutes later a further spasmogen challenge occurred. The contraction produced in the presence of CGRP was then compared with the mean of two control responses to SP observed prior to CGRP administration. […] Concentrations of CGRP were tested in a random order in each experiment. It is worthy of note that the inhibitory effect of CGRP on contractions induced by SP was also examined at a dose of SP (5×10^−8M) that induced similar maximal responses in tissues obtained from each group of animals.

The subject of another assay is guinea pig trachea. To be noted: cited from earlier work.
The next assay has as its system rat isolated airways. To be noted: references (4, 21), cited from earlier work.
The mark [3] stands for this setting: CGRP 30 μg/ml aerosol inhaled 10 minutes, 15 minutes after OA-challenge.

Turning to calcitonin gene-related peptide [CGRP], the “rise in BAL-eosinophil numbers versus OA” value in the assay on allergic guinea pigs (setting [3]) was found to be 2 fold. The “rise in BAL-eosinophil numbers versus control” value with allergic guinea pigs (setting [3]) came out at 12 fold. In addition, the “population of eosinophils in lung tissues” value in the assay with allergic guinea pigs (inhaled CGRP 15 minutes after OA-challenge, not shown) was “drastically decreased”. Besides, the “inhibitory effect on SP-induced contraction, percentage of contraction developed by SP alone” value in assay [1] (control guinea pigs, main bronchus, CGRP 10^−6M, n=3) amounted to 20.3±1.5%; in assay [2] (control guinea pigs, CGRP 10^−6M, SP 5×10^−8M, n=4), 47.3±3%. Moreover, in assay [1] (main bronchi from OA-sensitized guinea pigs), the “prevention of SP-induced bronchoconstriction” value is “failed to significantly prevent”. For the same substance, the “maximum inhibition of SP-induced contraction” value in assay [2] (OA-sensitized guinea pigs, CGRP 10^−6M, SP 5×10^−8M, n=5) worked out at 18.7±4.8%. Further, the “effect on contractions induced by SP” value in assay [2] (both groups of tissue (control and OA-sensitized), CGRP 10^−6M) was “significantly inhibited”. In assay [2] (control tissues, CGRP 10^−8M pre-incubation), the “effect on SP-induced contraction” value is reported as “slight reduction”. For the same substance, the “direct relaxant or contractile action per se” value in assay [2] (guinea pig isolated airways, exogenously applied CGRP alone) was “no relaxant and no contractile action”. Also, in assay [2] (parenchyma from OA-sensitized animals, CGRP 10^−8M), the “effect on SP-evoked response” value is “did not alter the amplitude or the shape”. The “contractile response, % of the maximum induced with 1.5×10^−5 M of methacholine” value in the assay with guinea pig trachea (reference (8)) is reported as 30%. Besides, in the assay on guinea pig trachea (reference (9)), the “contractile response, % of the capsaicin (10^−5 M) maximum” value is on record as 14%. Also, in the assay with guinea pig trachea (reference (19)), the “contractile response, % of 50 mM KCI-induced contraction” value is given as 8%. In addition, the “prevention of bronchospasms induced by carbamylcholine and 5-hydroxytryptamine” value in the assay on rat isolated airways (concentration-related) is listed as “marked ability to prevent”. Besides, the “direct contractile or relaxant effects” value in the assay with rat isolated airways (trachea, bronchi and lung parenchymal strips) is on record as “devoid of any direct contractile or relaxant effects”.
